For experiment [1], the target named is PI3 kinase alpha (Homo sapiens, UniProt P42336). Kind of experiment: PI3K ATP depletion assay (Biological Method 1, Assay 3; KinaseGlo luminescence). In kind it is biochemical. Conditions: read-out: PI3 Kinase Alpha, IC50.
The subject of experiment [2] is A2780 ovarian cancer cells. The experiment can be described thus: Cellular proliferation in A2780 cells, Cell Titer Glo (Biological Method 4). The class given is cell-based. Conditions: read-out: Cellular Proliferation, EC50; ovarian cancer cell line A2780, Biological Method 4.

Amino acid sequences for entries named in this document (tags omitted).
UniProt P42336, whole entry: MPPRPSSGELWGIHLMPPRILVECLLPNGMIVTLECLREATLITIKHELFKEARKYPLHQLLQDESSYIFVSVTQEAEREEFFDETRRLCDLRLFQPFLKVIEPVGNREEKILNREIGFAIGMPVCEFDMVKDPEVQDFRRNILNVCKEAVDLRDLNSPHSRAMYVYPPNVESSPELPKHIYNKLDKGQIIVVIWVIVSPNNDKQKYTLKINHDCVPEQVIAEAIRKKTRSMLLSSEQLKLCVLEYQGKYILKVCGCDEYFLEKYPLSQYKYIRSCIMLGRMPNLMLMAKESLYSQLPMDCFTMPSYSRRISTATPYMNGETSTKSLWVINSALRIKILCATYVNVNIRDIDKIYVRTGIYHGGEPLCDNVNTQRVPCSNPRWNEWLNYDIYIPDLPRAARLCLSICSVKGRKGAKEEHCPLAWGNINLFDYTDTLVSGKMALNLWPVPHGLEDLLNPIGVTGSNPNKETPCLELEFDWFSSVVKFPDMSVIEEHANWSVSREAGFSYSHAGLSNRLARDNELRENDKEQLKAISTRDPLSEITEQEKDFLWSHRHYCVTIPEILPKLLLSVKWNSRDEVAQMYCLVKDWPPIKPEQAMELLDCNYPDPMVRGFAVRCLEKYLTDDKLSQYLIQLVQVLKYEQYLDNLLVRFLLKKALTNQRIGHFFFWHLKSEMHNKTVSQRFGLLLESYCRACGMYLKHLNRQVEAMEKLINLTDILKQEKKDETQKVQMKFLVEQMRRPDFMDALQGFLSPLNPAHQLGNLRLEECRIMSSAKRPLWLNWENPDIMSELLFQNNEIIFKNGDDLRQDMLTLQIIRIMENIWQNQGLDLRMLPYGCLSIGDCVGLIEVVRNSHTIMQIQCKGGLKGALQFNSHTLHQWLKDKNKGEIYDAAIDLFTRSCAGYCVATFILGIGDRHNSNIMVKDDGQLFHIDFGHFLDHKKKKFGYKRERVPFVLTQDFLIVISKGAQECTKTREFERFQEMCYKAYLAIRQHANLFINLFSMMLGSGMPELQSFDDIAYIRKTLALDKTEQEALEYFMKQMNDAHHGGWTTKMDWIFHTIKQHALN
UniProt P27986, whole entry partner: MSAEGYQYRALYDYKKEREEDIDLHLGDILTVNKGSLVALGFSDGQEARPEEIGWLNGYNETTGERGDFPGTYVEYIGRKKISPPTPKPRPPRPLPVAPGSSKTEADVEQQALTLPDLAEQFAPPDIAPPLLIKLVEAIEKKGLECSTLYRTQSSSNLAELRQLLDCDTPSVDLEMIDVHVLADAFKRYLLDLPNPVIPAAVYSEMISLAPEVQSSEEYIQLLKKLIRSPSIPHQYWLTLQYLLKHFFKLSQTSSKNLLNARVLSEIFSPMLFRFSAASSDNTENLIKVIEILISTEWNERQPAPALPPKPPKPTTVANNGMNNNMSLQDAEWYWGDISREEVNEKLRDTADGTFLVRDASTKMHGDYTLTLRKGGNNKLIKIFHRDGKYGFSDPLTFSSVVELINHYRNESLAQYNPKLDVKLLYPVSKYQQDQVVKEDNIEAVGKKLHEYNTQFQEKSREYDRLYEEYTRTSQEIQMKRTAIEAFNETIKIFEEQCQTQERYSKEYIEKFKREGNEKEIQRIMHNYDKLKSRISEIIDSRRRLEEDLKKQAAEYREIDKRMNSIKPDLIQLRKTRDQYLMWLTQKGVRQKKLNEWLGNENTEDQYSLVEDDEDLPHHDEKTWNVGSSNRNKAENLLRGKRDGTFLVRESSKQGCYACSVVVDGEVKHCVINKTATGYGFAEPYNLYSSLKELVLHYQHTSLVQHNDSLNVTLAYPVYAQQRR

The structures appear in SMILES notation.

With `CS(=O)(=O)c1cccc(-c2cc(-c3ccc(N)nc3)nc(N3CCOCC3)n2)c1`, the IC50 (as a rule, the point on the concentration scale where inhibition reaches its midpoint) in experiment [1] was below 1 µM. Moreover, the EC50 in experiment [2] was below 10 µM.

Values taken from US8217035B2, “Pyrimidine derivatives used as PI-3-kinase inhibitors” (Novartis AG, priority 2006, dated 2012).
